The values that follow come from patent EP0942911B1, “BENZOPYRANOPYRROLE AND BENZOPYRANOPYRIDINE ALPHA-1 ADRENERGIC COMPOUNDS” (Abbott Laboratories, priority 1996, dated 1998).

The test system of this assay is α-1 Adrenoceptors. Briefly: Functional antagonism in rat aorta (method not described). The class given is cell-based.

On to `COc1cc2nc(N3CCN(C(=O)C4COc5ccccc5O4)CC3)nc(N)c2cc1OC` (stereo not shown) [Doxazosin, doxazosin, reference compound], for which the “In Vitro Characterization (pA2) Rat Aorta” value turned out to be 8.97.
